According to patent publication US20220053773A1 (priority 2018, published 2022):

Test system: human and plant cells
Assay: Toxicity to human and plant cells

Structure (SMILES): CC[C@H](C)[C@H](NC(=O)[C@H](CCCCN)NC(=O)[C@H](CC(C)C)NC(=O)[C@@H](NC(=O)[C@H](CCCCN)NC(=O)[C@H](CCCCN)NC(=O)[C@@H](NC(=O)[C@H](CC(C)C)NC(=O)[C@H](CCCCN)NC(=O)[C@@H](N)CCCCN)[C@@H](C)CC)[C@@H](C)CC)C(=O)N[C@@H](CC(C)C)C(=O)O [Peptide P11, KKLIKKILKIL]
- concentration toxic to human and plant cells: ≥ 40 µM
